Test system: lipase
Experiment: Lipase/lipolysis assay (EnzChek Lipase Substrate, quenched BODIPY-fatty acid conjugate) on stored human milk; further: test concentration or dose not given here

Substance: Lactate
- Lipase (RFU): 970.5105 RFU
